ChEMBL document CHEMBL3124940, “Design, synthesis and biological evaluation of D-ring opened galantamine analogs as multifunctional anti-Alzheimer agents” (Eur J Med Chem, 2014)

Tested on: Rattus norvegicus
Assay: Antialzheimer activity in Wistar rat scopolamine-induced cognition impairment model assessed as decrease in amount of errors plus baits not found during exploration at 1 umol/100 g body weight, ip treated for 5 mins prior to scopolamine-challenge measured after 20 to 120 mins by eight-arm radial maze test
Type: functional, organism-based
Method in brief: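 Female 60-day-old Wistar rats (Han:Wist) trained in an eight-arm radial maze to error-free trials under 60 s on three consecutive days; each animal served as its own control. Test agent given i.p. in saline 5 min before scopolamine (0.05 mg/100 g b. wt., i.p. in saline). Errors plus baits not found after 10 min, and total searching time, recorded before and 20, 60, 120 min after scopolamine; n = 14, mean ± SEM.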

Nc1c2c(nc3ccccc13)CCCC2 [TACRINE] was tested, and the Activity was “Active”.

Activity calls are given as the source filed them. The calls are words filed in the database; no cut-off is given here.
